In patent US11186589B2, “Cyanoindoline derivatives as NIK inhibitors” (Janssen Pharmaceutica NV, priority 2016, dated 2021) one finds IC50 data, which are given here for 1 compound.

Sequences of proteins named here, by UniProt entry; tags and fusion partners are left off.
UniProt Q99558, whole entry: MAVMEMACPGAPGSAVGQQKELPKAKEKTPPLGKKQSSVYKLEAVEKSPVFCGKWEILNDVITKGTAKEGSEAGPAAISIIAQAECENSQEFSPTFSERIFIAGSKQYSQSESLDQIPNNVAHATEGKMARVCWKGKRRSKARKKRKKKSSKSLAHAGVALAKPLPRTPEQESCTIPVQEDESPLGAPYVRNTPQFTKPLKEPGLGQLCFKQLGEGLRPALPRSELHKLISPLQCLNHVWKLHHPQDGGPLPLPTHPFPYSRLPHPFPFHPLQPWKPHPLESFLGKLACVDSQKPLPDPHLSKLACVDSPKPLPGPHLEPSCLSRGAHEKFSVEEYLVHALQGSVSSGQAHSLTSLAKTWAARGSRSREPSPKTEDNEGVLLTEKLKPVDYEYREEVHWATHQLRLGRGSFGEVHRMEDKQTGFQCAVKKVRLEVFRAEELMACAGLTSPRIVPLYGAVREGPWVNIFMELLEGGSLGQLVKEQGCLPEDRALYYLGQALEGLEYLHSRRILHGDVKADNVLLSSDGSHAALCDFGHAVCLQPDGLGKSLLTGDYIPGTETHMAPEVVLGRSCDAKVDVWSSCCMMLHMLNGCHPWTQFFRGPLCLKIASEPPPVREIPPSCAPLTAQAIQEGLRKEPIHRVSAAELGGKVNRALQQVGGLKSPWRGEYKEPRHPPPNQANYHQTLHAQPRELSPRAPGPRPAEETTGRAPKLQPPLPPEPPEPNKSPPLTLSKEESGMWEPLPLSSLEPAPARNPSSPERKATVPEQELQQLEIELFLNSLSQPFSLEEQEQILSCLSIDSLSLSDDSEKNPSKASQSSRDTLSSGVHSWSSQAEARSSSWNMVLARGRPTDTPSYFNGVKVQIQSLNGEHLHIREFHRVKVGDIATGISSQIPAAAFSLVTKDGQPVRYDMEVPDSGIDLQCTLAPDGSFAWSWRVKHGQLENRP

One experiment deals with KMS12-BM cells. Nature of the experiment: Antiproliferative activity on KMS12-BM (NIK WT) multiple myeloma cells (CellTiter-Glo). Conditions: read-out: KMS-12 Proliferation inhibition (IC50 (nM)), 96 hr treatment, averaged values. The method, then: (§1) Determination of Antiproliferative Activity on JJN-3 (NIK Translocated) and KMS12-BM (NIK WT) Multiple Myeloma Cells
(§2) All compounds tested were dissolved in DMSO and further dilutions were made in culture medium. Final DMSO concentration was 0.3% (v/v) in cell proliferation assays. Viability was assessed using CellTiter-Glo cell viability assay kit (Promega). The human JJN-3 and KMS12-BM cells (DSMZ) were cultured in RPMI 1640 medium supplemented with 2 mM L-glutamine, and 10% fetal calf serum (PAA). Cells were routinely kept as suspension cells at 37° C. in a humidified 5% CO2 atmosphere. Cells were passaged at a seeding density of 0.2×10^6/ml twice a week. Cells were seeded in black tissue culture treated 96-well plates (Perkin Elmer). Densities used for plating ranged from 15000 (JJN3) to 20000 (KMS12BM) cells per well in a total volume of […]. Drugs and/or solvents were added (15 μl) to a final volume of 150 μl. […] Luminescence was measured on a HTS Topcount (Perkin Elmer). […] For each experiment, controls (containing no drug) and a blank incubation (containing cells read at the time of compound addition) were run in parallel. […] For each sample, the mean value for cell growth (in relative light units) was expressed as a percentage of the mean value for cell growth of the control.
(In ATP-based viability assays light output follows the ATP content of the culture.)

The target in the next experiment is NIK/MAP3K14 (Homo sapiens (Human), UniProt Q99558). The experiment is described as follows: Inhibition of auto-phosphorylation of recombinant human NF-kappaB-inducing kinase (NIK/MAP3K14) activity (AlphaScreen). Conditions: read-out: Auto-phosphorylation inhibition of NIK (IC50 (nM)), averaged values over all measurements on all batches, 25 microM ATP. The method, then:
Inhibition of Auto-Phosphorylation of Recombinant Human NF-kappaB-Inducing Kinase ([…]) Activity (AlphaScreen®)
NIK/MAP3K14 auto-phosphorylation activity was measured using the AlphaScreen® (αscreen) format (Perkin Elmer). All compounds tested were dissolved in dimethyl sulfoxide (DMSO) and further dilutions were made in assay buffer. Final DMSO concentration was […] in assays. Assay buffer was 50 mM Tris pH 7.5 containing 1 mM EGTA (ethylene glycol tetraacetic acid), 1 mM DTT (dithiothreitol), 0.1 mM Na3VO4, 5 mM MgCl2, 0.01% Tween® 20. Assays were carried out in 384 well Alphaplates (Perkin Elmer). Incubations consisted of compound, 25 microM Adenosine-5′-triphosphate (ATP), and 0.2 nM NIK/MAP3K14. Incubations were initiated by addition of GST-tagged NIK/MAP3K14 enzyme, carried out for 1 h at 25° C. and terminated by addition of stop buffer containing anti-phospho-[…] Ser176/180 antibody. Protein A Acceptor and Glutathione-Donor beads were added before reading using an EnVision® Multilabel Plate Reader (Perkin Elmer). Signal obtained in the wells containing blank samples was subtracted from all other wells and IC50's were determined by fitting a sigmoidal curve to % inhibition of control versus Log10 compound concentration.

For experiment [1], the system named is P-IKKα levels in L363 cells. The experiment is described as follows: Effect of compounds on P-IKKα levels in L363 (NIK translocated multiple myeloma) cells. Conditions: read-out: Inhibition of pIKKα_L-363 (IC50 (nM)), 2 hr treatment, averaged values. The method, then: Effect of Compounds on P-IKKα Levels in L363 (NIK Translocated Multiple Myeloma) Cells
All compounds tested were dissolved in DMSO and further dilutions were made in culture medium. Final DMSO concentration was 1% (v/v) in cell assays. The human L363 cells (ATCC) were cultured in RPMI 1640 medium supplemented with GlutaMax and 10% fetal calf serum (PAA). Cells were routinely maintained at densities of 0.2×10^6 cells per ml—1×10^6 cells per ml at 37° C. in a humidified 5% CO2 atmosphere. Cells were passaged twice a week splitting back to obtain the low density. Cells were seeded in 96 well plates (Nunc 167008) at 2×10^6 per ml media in a volume of 75 μl per well plus 25 μl 1 μg/ml recombinant human B-cell activating factor (BAFF/BLyS/TNFSF13B). Seeded cells were incubated at 37° C. in a humidified 5% CO2 atmosphere for 24 hr. Drugs and/or solvents were added (20 μl) to a final volume of 120 μl. Following 2 hr treatment plates were removed from the incubator and cell lysis was achieved by the addition of 30 μl 5× lysis buffer followed by shaking on a plate shaker at 4° C. for 10 min. At the end of this incubation lysed cells were centrifuged at 800×g for 20 min at 4° C. and the lysate was assessed for P-IKKα levels by sandwich immuno-assay carried out in anti-rabbit antibody coated Mesoscale plates. Within an experiment, the results for each treatment were the mean of 2 replicate wells. […]

In a further experiment the test system is JJN-3 cells. The experiment is described as follows: Antiproliferative activity on JJN-3 (NIK translocated) multiple myeloma cells (CellTiter-Glo). Conditions: read-out: JJN-3 Proliferation inhibition (IC50 (nM)), JJN-3 (NIK translocated) cells, 96 hr treatment, averaged values. The method, then: as §1, §2

Turning to `CNC(=O)Cn1ccc2c(Nc3nccc(-c4cc(C#N)c5c(c4)C(C)(CO)CN5)n3)cc(Cl)cc21` (stereo not shown), the IC50 in the experiment with KMS12-BM cells was 204 nM; at NIK/MAP3K14, 4.3 nM; in experiment [1], 4 nM; in the experiment with JJN-3 cells it was 12 nM.
